Assay results published in ChEMBL document CHEMBL5108065, “Discovery and Characterization of Potent, Efficacious, Orally Available Antimalarial Plasmepsin X Inhibitors and Preclinical Safety Assessment of UCB7362” (J Med Chem, 2022).

Assays:
[1] = Efflux ratio of apparent permeability in human Caco-2 cells at 50 uM; type: ADME, cell-based; conditions: caco-2, 50 µM
[2] = Efflux ratio of apparent permeability in human Caco-2 cells at 10 uM; type: ADME, cell-based; conditions: caco-2, 10 µM
Plasmodium falciparum = assay: Antimalarial activity against Plasmodium falciparum 3D7 assessed as parasite reduction ratio at 10 times IC50 measured for 24 to 120 hrs by serial dilution analysis; type: functional; conditions: time 24-120 hrs
[3] = Efflux ratio of apparent permeability in human Caco-2 cells at 2 uM; type: ADME, cell-based; conditions: caco-2, 2 µM

In the case of `C[C@H]1C[C@@H](N2C(=N)N[C@](C)(c3cccc(NC(=O)c4cccc(C#N)c4)c3Cl)CC2=O)CCO1`, the Ratio [1] is reported as 85, the Ratio [2] is reported as 169 and the “log(ratio)” value (Plasmodium falciparum) is reported as 3.2. For the same molecule, the Ratio [3] was 411.
